Source: ChEMBL document CHEMBL6127118, “Identification of Oral Bioavailable Coumarin Derivatives as Potential AR Antagonists Targeting Prostate Cancer” (J Med Chem, 2024)
The source made the active and inactive calls.

Tests used:
Type in all cases: cell-based
[1] = target: T1, Progesterone receptor (Homo sapiens) (UniProt P06401); test: Agonist activity at progesterone-induced Progesterone receptor (unknown origin) transfected in HEK293T cells at high concentration by Dual-Luciferase Reporter assay
T1 sequence (whole entry): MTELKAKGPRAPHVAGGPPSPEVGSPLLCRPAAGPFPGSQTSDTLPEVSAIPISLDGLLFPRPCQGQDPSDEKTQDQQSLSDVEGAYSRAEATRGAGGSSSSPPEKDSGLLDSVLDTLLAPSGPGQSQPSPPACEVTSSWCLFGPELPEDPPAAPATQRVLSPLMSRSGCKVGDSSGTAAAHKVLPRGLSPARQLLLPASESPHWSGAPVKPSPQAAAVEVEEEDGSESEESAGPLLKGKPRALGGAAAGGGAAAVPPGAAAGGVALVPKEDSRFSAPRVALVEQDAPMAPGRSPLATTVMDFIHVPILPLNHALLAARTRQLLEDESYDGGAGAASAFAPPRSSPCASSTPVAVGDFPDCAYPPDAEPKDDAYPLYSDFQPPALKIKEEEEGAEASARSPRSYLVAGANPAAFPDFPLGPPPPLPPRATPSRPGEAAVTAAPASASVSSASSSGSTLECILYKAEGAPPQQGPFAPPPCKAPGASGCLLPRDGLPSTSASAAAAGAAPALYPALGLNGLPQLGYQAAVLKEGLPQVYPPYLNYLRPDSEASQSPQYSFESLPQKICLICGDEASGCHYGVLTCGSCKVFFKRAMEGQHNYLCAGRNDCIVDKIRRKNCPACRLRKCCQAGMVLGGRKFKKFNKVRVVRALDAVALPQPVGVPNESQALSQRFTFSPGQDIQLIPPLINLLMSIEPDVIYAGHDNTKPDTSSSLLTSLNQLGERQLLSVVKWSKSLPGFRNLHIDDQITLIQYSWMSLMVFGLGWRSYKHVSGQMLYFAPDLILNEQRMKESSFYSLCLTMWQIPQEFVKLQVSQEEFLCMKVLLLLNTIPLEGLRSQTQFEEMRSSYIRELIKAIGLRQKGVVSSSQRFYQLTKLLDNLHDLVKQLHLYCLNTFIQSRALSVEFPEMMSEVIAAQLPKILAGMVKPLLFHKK

[2] = target: T1, Progesterone receptor (Homo sapiens); test: Antagonist activity at progesterone-induced Progesterone receptor (unknown origin) transfected in HEK293T cells at high concentration by Dual-Luciferase Reporter assay
[3] = target: T2, Glucocorticoid receptor (Homo sapiens) (UniProt P04150); test: Agonist activity at dexamethasone-induced Glucocorticoid receptor (unknown origin) transfected in HeLa cells co-expressing mmTV incubated for 24 hrs by Dual-Luciferase Reporter assay
T2 sequence (whole entry): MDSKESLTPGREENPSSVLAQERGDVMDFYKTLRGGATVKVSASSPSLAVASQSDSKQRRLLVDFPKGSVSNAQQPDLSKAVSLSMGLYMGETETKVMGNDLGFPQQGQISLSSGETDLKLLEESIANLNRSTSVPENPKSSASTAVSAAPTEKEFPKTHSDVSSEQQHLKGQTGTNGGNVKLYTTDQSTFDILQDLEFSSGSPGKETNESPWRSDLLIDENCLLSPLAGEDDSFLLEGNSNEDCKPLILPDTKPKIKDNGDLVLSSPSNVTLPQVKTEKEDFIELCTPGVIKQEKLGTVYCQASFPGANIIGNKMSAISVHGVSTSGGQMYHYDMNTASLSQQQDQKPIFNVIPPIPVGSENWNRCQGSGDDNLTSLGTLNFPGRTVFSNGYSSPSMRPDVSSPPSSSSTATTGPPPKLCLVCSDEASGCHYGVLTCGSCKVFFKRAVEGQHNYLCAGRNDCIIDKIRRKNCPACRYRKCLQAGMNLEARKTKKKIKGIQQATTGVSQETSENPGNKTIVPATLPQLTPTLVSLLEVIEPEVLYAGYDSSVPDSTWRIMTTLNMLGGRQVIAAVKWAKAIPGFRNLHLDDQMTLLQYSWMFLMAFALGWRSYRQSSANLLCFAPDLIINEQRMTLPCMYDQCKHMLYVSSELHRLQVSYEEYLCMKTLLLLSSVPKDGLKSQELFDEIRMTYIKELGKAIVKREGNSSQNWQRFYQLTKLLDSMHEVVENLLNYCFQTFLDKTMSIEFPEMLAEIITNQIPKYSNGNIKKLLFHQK

[4] = target: T3, Mineralocorticoid receptor (Homo sapiens) (UniProt P08235); test: Antagonist activity at aldosterone-induced Mineralocorticoid receptor (unknown origin) transfected in HEK293T cells by Dual-Luciferase Reporter assay
T3 sequence (whole entry): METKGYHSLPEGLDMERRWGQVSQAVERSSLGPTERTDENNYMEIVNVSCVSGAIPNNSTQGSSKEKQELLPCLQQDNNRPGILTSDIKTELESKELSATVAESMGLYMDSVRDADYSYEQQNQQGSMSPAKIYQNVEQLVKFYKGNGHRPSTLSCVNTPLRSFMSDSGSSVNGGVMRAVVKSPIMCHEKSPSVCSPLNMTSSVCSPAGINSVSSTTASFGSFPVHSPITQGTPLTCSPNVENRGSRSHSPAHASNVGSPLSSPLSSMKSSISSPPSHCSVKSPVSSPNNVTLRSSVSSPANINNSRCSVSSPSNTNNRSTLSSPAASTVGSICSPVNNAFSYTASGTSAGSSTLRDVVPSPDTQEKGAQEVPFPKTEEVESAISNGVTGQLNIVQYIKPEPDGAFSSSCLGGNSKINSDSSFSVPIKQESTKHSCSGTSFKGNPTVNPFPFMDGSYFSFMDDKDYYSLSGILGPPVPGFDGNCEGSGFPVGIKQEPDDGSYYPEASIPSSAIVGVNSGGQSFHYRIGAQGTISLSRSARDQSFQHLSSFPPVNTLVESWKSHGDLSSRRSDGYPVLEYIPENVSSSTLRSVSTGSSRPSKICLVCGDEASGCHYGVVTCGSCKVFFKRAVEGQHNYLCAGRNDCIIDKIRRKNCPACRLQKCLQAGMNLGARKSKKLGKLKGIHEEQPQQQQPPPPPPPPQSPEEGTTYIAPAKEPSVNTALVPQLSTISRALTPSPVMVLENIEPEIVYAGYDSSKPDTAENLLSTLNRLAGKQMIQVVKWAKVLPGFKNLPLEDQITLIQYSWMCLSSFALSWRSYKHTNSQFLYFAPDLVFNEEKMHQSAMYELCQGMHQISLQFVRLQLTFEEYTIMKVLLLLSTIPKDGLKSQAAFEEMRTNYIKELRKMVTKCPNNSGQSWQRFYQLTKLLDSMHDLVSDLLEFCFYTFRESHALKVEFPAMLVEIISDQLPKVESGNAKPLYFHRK

Measured: Activity

CN(Cc1ccc(F)cc1)c1ccc2c(C(F)(F)F)cc(=O)oc2c1
inactive: [1] | [2] | [3]

CNC(=O)c1ccc(N2C(=S)N(c3ccc(C#N)c(C(F)(F)F)c3)C(=O)C2(C)C)cc1F [ENZALUTAMIDE]
inactive: [1] | [2] | [3] | [4]
